The record followed here is publication PMC12096005.

The chains behind the UniProt entries cited, without tags or fusion partners. Residues count along the entry.
UniProt Q07954, 20-4544: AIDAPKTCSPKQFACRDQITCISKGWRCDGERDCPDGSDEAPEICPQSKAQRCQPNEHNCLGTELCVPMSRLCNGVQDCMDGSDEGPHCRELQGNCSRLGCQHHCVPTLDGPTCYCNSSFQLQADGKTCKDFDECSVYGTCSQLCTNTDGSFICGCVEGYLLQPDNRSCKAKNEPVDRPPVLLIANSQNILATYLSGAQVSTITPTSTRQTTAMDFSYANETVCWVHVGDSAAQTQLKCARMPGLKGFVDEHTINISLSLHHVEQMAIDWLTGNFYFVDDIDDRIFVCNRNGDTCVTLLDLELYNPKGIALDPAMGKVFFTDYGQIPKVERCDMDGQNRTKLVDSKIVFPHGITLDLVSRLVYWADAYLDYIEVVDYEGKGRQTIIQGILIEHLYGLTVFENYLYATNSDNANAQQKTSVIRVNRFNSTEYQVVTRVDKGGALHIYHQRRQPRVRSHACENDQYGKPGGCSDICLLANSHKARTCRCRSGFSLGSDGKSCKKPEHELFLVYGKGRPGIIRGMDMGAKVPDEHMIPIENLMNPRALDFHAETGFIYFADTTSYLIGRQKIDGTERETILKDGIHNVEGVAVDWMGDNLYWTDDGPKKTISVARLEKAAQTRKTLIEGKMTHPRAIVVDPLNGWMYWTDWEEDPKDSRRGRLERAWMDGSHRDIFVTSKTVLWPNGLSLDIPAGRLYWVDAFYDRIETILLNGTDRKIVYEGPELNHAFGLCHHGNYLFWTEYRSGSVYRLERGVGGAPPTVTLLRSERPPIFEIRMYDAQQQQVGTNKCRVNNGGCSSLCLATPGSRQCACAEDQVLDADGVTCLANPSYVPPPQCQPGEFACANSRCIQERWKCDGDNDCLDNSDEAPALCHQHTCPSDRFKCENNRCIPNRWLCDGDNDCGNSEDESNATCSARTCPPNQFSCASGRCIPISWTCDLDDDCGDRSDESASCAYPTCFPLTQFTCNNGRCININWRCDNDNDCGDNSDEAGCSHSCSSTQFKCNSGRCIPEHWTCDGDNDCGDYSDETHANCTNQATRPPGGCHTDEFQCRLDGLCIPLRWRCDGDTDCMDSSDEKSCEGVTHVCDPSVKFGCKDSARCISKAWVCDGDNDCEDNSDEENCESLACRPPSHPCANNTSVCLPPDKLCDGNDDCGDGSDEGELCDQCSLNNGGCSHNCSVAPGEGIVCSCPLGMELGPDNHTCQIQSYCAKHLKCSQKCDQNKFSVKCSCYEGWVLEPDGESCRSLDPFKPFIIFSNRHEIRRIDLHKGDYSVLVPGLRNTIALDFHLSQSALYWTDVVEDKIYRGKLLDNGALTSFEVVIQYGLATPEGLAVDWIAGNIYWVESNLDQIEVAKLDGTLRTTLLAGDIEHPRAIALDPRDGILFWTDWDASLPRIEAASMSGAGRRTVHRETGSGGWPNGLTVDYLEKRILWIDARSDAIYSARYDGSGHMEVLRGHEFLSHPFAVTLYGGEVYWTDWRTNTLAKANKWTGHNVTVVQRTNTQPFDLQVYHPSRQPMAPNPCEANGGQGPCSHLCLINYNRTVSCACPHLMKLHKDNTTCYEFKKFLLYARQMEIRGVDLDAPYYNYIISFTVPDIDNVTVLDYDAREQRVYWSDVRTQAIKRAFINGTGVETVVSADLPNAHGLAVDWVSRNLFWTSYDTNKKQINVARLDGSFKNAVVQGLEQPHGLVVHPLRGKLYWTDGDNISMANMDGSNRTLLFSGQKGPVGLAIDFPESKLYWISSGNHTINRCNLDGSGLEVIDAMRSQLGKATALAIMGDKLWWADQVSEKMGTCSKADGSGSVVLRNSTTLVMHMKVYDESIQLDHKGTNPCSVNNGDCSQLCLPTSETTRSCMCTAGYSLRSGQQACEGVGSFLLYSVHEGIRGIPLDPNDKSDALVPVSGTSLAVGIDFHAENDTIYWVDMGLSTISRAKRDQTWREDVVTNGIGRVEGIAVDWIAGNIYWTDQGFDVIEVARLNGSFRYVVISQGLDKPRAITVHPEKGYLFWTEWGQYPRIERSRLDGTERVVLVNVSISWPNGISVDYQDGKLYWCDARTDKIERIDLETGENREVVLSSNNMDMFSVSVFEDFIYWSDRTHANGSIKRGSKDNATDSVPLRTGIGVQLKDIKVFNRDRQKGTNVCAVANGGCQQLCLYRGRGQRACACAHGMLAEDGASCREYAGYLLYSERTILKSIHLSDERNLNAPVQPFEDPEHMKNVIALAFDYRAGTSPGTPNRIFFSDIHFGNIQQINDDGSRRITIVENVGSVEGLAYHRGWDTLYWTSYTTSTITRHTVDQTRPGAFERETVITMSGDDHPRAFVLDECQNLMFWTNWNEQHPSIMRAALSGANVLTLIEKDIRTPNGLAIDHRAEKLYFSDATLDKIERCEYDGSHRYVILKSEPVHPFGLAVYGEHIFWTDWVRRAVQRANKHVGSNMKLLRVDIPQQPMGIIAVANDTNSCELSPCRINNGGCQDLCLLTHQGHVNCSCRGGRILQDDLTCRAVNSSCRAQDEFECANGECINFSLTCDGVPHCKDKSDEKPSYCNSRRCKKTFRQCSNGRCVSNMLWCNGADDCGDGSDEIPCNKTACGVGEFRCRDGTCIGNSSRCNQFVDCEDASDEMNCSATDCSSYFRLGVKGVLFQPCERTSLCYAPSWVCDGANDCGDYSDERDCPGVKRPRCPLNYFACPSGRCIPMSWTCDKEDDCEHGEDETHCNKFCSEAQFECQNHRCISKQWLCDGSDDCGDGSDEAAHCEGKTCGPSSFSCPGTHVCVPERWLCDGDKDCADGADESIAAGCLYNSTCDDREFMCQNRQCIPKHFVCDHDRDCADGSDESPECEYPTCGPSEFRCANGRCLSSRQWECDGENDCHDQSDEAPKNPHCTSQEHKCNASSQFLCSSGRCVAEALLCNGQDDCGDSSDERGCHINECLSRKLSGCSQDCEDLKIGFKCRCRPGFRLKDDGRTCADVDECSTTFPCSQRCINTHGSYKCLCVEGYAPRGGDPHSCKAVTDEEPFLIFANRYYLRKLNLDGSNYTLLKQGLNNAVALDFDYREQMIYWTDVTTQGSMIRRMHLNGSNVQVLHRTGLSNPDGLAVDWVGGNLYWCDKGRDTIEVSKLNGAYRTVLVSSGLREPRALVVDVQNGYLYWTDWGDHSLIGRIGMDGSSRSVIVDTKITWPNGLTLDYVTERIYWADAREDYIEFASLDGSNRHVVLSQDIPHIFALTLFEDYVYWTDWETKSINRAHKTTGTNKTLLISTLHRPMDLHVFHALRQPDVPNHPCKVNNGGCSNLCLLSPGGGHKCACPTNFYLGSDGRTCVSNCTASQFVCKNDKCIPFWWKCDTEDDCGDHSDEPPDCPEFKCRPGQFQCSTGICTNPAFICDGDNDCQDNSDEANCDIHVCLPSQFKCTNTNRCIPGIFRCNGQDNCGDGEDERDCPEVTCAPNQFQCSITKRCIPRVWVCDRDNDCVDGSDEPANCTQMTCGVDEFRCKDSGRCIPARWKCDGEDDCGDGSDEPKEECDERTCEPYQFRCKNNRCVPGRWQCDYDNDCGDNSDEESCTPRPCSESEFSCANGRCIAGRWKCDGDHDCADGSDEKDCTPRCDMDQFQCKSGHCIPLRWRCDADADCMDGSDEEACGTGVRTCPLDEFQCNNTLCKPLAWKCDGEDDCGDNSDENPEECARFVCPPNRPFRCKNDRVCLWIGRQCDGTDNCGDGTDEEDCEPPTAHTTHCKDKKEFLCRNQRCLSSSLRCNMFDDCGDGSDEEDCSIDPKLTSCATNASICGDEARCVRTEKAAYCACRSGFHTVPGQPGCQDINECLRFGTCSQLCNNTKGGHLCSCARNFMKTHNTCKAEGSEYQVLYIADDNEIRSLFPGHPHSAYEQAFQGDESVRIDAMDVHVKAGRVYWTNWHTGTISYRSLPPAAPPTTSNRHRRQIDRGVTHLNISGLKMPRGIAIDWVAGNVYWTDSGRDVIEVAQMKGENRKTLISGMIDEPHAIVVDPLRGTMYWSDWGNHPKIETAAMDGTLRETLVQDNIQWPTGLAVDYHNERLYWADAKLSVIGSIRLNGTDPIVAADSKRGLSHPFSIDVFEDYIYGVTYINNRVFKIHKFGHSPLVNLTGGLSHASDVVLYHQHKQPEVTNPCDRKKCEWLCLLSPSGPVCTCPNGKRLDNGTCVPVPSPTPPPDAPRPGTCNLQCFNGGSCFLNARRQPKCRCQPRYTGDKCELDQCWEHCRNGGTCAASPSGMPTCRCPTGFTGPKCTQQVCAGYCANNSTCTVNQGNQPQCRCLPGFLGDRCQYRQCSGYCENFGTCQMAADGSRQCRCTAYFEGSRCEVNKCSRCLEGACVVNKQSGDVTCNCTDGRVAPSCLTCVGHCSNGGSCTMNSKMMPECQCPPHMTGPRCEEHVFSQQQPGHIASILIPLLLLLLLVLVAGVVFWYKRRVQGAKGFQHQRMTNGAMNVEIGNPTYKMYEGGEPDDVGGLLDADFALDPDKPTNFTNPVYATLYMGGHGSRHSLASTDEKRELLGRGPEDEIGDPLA

The target in the assay is low density lipoprotein receptor-related protein 1 (LRP1), full-length, purified from human placenta (human) (UniProt Q07954). Briefly: SPR; Biacore 8K; full-length LRP1 immobilised via amine coupling on a CM5 sensorchip; tau proteins (3.7, 11.1, 33.3 nM) flowed over in a single cycle kinetic titration at pH 7.4; apparent KD from nonlinear regression of Rmax vs concentration. A general note: Surface plasmon resonance follows binding to a sensor surface in real time, without labels.

On to “full-length 2N4R tau, wildtype sequence (recombinant, without HiBiT-tag) (from UniProt P10636-8 1-441) (natural protein)”, for which the Kd came to 6 nM.
